Earlier results, collected in PMC6222802 (Molecules : A Journal of Synthetic Chemistry and Natural …, 2018).

Key:
Conditions in all cases: 30 µg/mL; ref Li et al.; cited from earlier work
HepG2 cells = system: HepG2 cells
HCT1116 cells = system: HCT1116 cells
A549 cells = system: A549 cells
MCF-7 cells = system: MCF-7 cells

In the case of `COc1ccc(OP(=O)(Cl)N(CCCl)CCCl)cc1` (stereo not shown), the “inhibition rate, HepG2” value (HepG2 cells) is listed as 88%, the “inhibition rate, HCT1116” value (HCT1116 cells) is listed as 68% and the “inhibition rate, A549” value (A549 cells) is listed as 40%. For the same compound, the “inhibition rate, MCF-7” value (MCF-7 cells) was 73%.
